The values that follow are results of earlier work, collected in patent US20230270635A1, “METHODS AND COMPOSITIONS FOR COSMETIC APPLICATIONS” (GLO Pharma, Inc., priority 2021, published 2023).

The conditions of the data set: non-ionic surfactants with HLB of 10 or less, Table 1.

As to PEG-4 laurate, the HLB entry is “HLB = 9”.
